# PDI inh = blocks human protein disulfide isomerase activity; PDI insulin aggregation turbidity, A650, 90 min; inhibition, % at 10 µM; 350,000 tested, 0.052% active;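 active means mean inhibition across replicates of 30% or more, whatever share of single replicates reach that level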
# NR1D1 modulator = modulators of human Rev-erb alpha DNA binding. Rev-erbα–FITC-DNA binding, fluorescence polarization, 90 min. 370,000 tested, 0.79% active. P20393. AID 1259318. activity, % at 10 µM;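 active means activity above about 14%, limit read from the data; passing the limit was not always enough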;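 further: 0% = DMSO wells with 35 nM protein and 100% = DMSO wells with 750 nM protein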
# GSIS activator = primary screen for activators of insulin secretion dependent on glucose, INS-1E cells, GLuc reporter luminescence. INS-1E GLuc reporter insulin secretion, 2-3 h. activation, % at 16.6 µM. 370,000 tested, 0.61% active. AID 743287;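 active means lowest replicate activation of at least 40%, so every replicate reaches that level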;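 further: 0% = median of neutral control wells and 100% = median of IBMX positive control wells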
# ERp5 block = ERp5 (human) disulfide isomerase inhibition; ERp5 insulin aggregation, absorbance 650 nm, 90 min; inhibition, % at 9.99 µM; 350,000 tested, 0.05% active; AID 651711;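 active means mean replicate inhibition above about 25%, with every replicate also reaching it, limit read from the data, passing the limit was not always enough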
# SMARCA2 activ = SMARCA2 function activation, primary screen; AID 652017; 370,000 tested, 1% active; MG213 cells, MMTV-luciferase reporter, dexamethasone, overnight; activation, % at 9.1 µM; in the data active means activation above about 7.8%;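 further: 0% = vehicle wells and 100% = reference activator wells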
# UUG fidelity = yeast start codon fidelity modulation | S. cerevisiae UUG-firefly luciferase reporter, luminescence/redox ratio | activity score, % at 18.7 µM | hit rate 0.13% among 350,000 | AID 602363;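 active means replicate mean at a twofold rise or more, about +100% in these data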;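 further: firefly luciferase made from a UUG start codon reports start codon fidelity; reporter light over untreated wells divided by growth signal over untreated wells; some hits fall short of that in this replicate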
# NR1D1 mod conf = confirmation of modulators of human Rev-erb alpha DNA binding. AID 1259319. Rev-erb alpha FITC-DNA binding, fluorescence polarization, 90 min. shares compounds with NR1D1 modulator. 3,000 tested, 61% active. activation, % at 25 µM;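 active means activation at or above a set limit, or at least 3 SD above the negative control mean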;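 further: 0% = 35 nM protein with DMSO and 100% = 750 nM protein high control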
# RORg DNA counter = RORgamma DNA-binding activity, dose-response counter-screen. IC50, µM. purified RORgamma protein-FITC-DNA binding, fluorescence polarization. 910 tested, 8% active. shares compounds with NR1D1 modulator;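 active means Compounds whose fitted half-maximal concentration for disrupting protein-DNA binding is below 10 micromolar; the record names Rev-erb in its text, so the target is in doubt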
# Active calls of the source: *; i = inactive; . = no result given. Hits are enriched below; roughly 2.1% of the tested compounds scored in any of these assays.
# A first look, 3 compounds:
SMILES,PDI inh,NR1D1 modulator,GSIS activator,ERp5 block,SMARCA2 activ,UUG fidelity,NR1D1 mod conf,others
Oc1ccc(N=Nc2ccccc2C(F)(F)F)c2cccnc12,-6,23*,7,-1,-1,-13,5,
Cc1cc(C)c2c(n1)sc1c(-c3ccccc3)c(C#N)c(N)nc12,15,23*,53,.,1,.,4,
COc1ccc(NC(=O)c2cc3c(-c4ccc(OC)c(OC)c4)nn(C)c3s2)cc1OC,0,2,.,.,0,-18,.,

# Results (from the top)
SMILES,PDI inh,NR1D1 modulator,GSIS activator,ERp5 block,SMARCA2 activ,UUG fidelity,NR1D1 mod conf,others
Oc1ccc(N=Nc2ccccc2C(F)(F)F)c2cccnc12,-6,23*,7,-1,-1,-13,5,
Cc1cc(C)c2c(n1)sc1c(-c3ccccc3)c(C#N)c(N)nc12,15,23*,53,.,1,.,4,
COc1ccc(NC(=O)c2cc3c(-c4ccc(OC)c(OC)c4)nn(C)c3s2)cc1OC,0,2,.,.,0,-18,.,
COc1ccc(-c2nn(C)c3sc(C(=O)NCc4ccco4)cc23)cc1OC,5,58*,.,.,-1,-18,52*,RORg DNA counter=i
CNC[C@@H]1Oc2cc(C#CCOC)ccc2S(=O)(=O)N([C@@H](C)CO)C[C@H]1C,.,.,5,-1,.,-6,.,
C[C@@H](NC(=O)C[C@@H]1CC[C@H]2[C@@H](COC[C@@H](O)CN2C(=O)Nc2ccccc2)O1)c1ccccc1,.,.,-1,3,.,35,.,
C=CCN1C(=O)/C(=C2/Sc3ccc(OC)cc3N2C)SC1=Nc1cccc(O)c1,-1,16*,0,-7,0,.,7,
O=C1OC(c2ccccc2)(c2ccccc2)c2ccsc21,-2,23*,.,-7,4,20,20*,
COC(=O)c1cc2c(c3c4cc(OC)ccc4n(S(=O)(=O)c4cccc(C)c4)c13)C(=O)N(Cc1ccc(C(F)(F)F)cc1)C2,.,18*,22,-6,-3,.,8,
COc1cccc(NC(=O)N[C@H]2C=C[C@H](CC(=O)Nc3ccc(-c4ccccc4)cc3)O[C@@H]2CO)c1,.,.,-6,6,.,.,.,
Cc1ccccc1S(=O)(=O)NCC[C@@H]1CC[C@@H](NC(=O)C2CCCCC2)[C@H](CO)O1,.,.,0,-7,.,5,.,
O=S1(=O)c2ccc(N3CCSCC3)cc2Oc2ccccc2CN1Cc1cn(Cc2ccc(Cl)cc2)nn1,.,18,.,.,-1,.,.,
O=S1(=O)c2ccc(N3CCSCC3)cc2Oc2ccccc2CN1Cc1cn(Cc2ccc(F)cc2)nn1,.,20*,.,.,7,.,19*,
O=S1(=O)c2ccc(N3CCSCC3)cc2Oc2ccccc2CN1Cc1cn(Cc2cccc(C(F)(F)F)c2)nn1,.,18*,.,.,-1,.,10,
CCC(=O)N[C@H]1C=C[C@H](CC(=O)NCC2CCCCC2)O[C@@H]1CO,.,.,-6,1,.,4,.,
Cc1cc(-c2cccc([N+](=O)[O-])c2)nc2ccc3ccccc3c12,-2,38*,49,.,0,-11,42*,RORg DNA counter=i
O=C(O)c1cc(-c2cccc([N+](=O)[O-])c2)nc2ccccc12,10,-2,-7,10,1,3,.,
COc1ccnc(N2CCN(c3cccc(C(F)(F)F)c3)CC2)c1C#N,-3,28*,73*,.,4,-16,6,
CO[C@H]1CN(C)C(=O)c2ccc(NC(=O)NC(C)C)cc2OC[C@H](C)N(Cc2ccccn2)C[C@H]1C,.,.,2,1,.,.,.,
COc1ccccc1-c1ccc2c(c1)C(C)(Cc1ccc(Cl)cc1)C(=O)N2 (stereo not drawn),-2,-5,.,-1,1,.,.,

# Reprinted at random: two compounds from above.
SMILES,PDI inh,NR1D1 modulator,GSIS activator,ERp5 block,SMARCA2 activ,UUG fidelity,NR1D1 mod conf,others
COc1ccc(NC(=O)c2cc3c(-c4ccc(OC)c(OC)c4)nn(C)c3s2)cc1OC,0,2,.,.,0,-18,.,
CO[C@H]1CN(C)C(=O)c2ccc(NC(=O)NC(C)C)cc2OC[C@H](C)N(Cc2ccccn2)C[C@H]1C,.,.,2,1,.,.,.,

# New compounds follow.
SMILES,PDI inh,NR1D1 modulator,GSIS activator,ERp5 block,SMARCA2 activ,UUG fidelity,NR1D1 mod conf,others
COc1ccccc1-c1ccc2c(c1)C(C)(Cc1cccc(C#N)c1)C(=O)N2 (stereo not drawn),3,46*,-16,4,-4,-4,43*,RORg DNA counter=>40
COc1ccccc1-c1ccc2c(c1)C(C)(Cc1cc(Cl)ccc1C(F)(F)F)C(=O)N2 (stereo not drawn),-4,43*,6,-1,-7,-10,62*,RORg DNA counter=i
COc1ccccc1-c1ccc2c(c1)C(C)(Cc1ccc(OC(F)(F)F)cc1)C(=O)N2 (stereo not drawn),-3,6,.,2,-4,-10,.,
COc1ccccc1-c1ccc2c(c1)C(C)(Cc1ccc(F)c(Cl)c1)C(=O)N2 (stereo not drawn),-3,12,-2,3,-7,-11,.,
COc1ccc(Cl)cc1CC1(C)C(=O)Nc2ccc(-c3ccccc3OC)cc21 (stereo not drawn),2,50*,0,-1,-6,4,55*,RORg DNA counter=>40
C[C@@H]1CN([C@@H](C)CO)C(=O)c2cc(C#CCC3CCCC3)cnc2O[C@H]1CN(C)S(=O)(=O)c1cccs1,.,.,10,-2,.,-3,.,
CCc1ccc2[nH]cc(S(=O)(=O)c3ccc(C)c(C)c3)c(=O)c2c1,-1,3,11,2,0,8,.,
CCc1ccc2[nH]c3nc(C)cc(C)c3c(=O)c2c1,-6,30*,17,.,3,.,25*,
CCN1[C@@H]2c3ccc(-c4ccc(OC)cc4)c(=O)n3C[C@@H]2[C@@H](CO)[C@@H]1C(=O)N(C)C,.,.,-1,.,.,.,.,
Cc1sc2ncnc(SCC(=O)NC(=O)c3cccn3C)c2c1C,-1,39*,10,3,0,.,25*,
Cc1sc2ncnc(SCC(=O)N3CCCCC3)c2c1C,-6,-1,-4,11,-4,-26,.,
Cc1sc2ncnc(SCC(=O)N3c4ccccc4Sc4ccc(Cl)cc43)c2c1C,-4,132*,.,1,6,.,17*,
CNC[C@@H]1Oc2ccc(NS(=O)(=O)c3cccs3)cc2C(=O)N([C@H](C)CO)C[C@@H]1C,.,.,4,-8,.,-2,.,
CCOC(=O)c1nn(-c2ccc(C)cc2)c2nc(Nc3ccccc3)cc(=O)n12,-3,-3,.,.,1,-5,.,
Cc1ccc(-n2nc(C(=O)c3ccccc3)n3c(=O)cc(-c4ccccc4)nc23)cc1,-3,49*,.,.,1,-9,16,
Cc1cccc(C)c1NC(=O)CSc1ncnc2[nH]ncc12,4,23*,-19,-6,-5,.,18*,
Cc1cccc(C(C)C)c1NC(=O)CSc1ncnc2[nH]ncc12,-4,-1,16,-1,-2,-18,.,
C[C@@H]1CN([C@@H](C)CO)C(=O)c2cc(NC(=O)Nc3ccccc3)ccc2O[C@@H](C)CCCCO[C@H]1CN(C)CC1CCCCC1,.,.,-8,2,.,8,.,
COCCN(Cc1cc2cc(C)ccc2n2nnnc12)C(=S)Nc1ccccc1C,1,87*,24,1,5,.,40*,RORg DNA counter=>40
CC(C)C#Cc1ccc([C@H]2[C@@H](CO)N3C(=O)CN(C(=O)NC4CCCCC4)C[C@@H]23)cc1,.,.,-17,-11,.,.,.,
CCN1/C(=C/C=C/c2oc3ccc(-c4ccccc4)cc3[n+]2CC)Oc2ccc(-c3ccccc3)cc21,1,139*,5,-2,-12,-4,135*,RORg DNA counter=i
CCc1cc2cc(C(=O)Nc3ccc(C)cc3)sc2s1,-2,45*,.,.,0,1,17*,
